In PMC9502466, “Identification of SARS-CoV-2 Main Protease Inhibitors from a Library of Minor Cannabinoids by Biochemical Inhibition Assay and Surface Plasmon Resonance Characterized Binding Affinity” (Molecules, 2022):
pKd: −log10 of the molar value. Where two headings read alike, the source gives them in different places.

What was measured:
[1] = biological target: T1, SARS-CoV-2 M^pro (Severe acute respiratory syndrome coronavirus 2, UniProt P0DTD1); settings: for Kd (dissociation constant) / Ka (association constant) / pKd: SPR; for pKd: read-out: KD (affinity)
[2] = biological target: T1, SARS-CoV-2 M^pro; experiment: biochemical; settings: for kon: read-out: Ka (association constant)
[3] = cannabinoids, 2× fold dilutions from 75 to 4.68 μM

SMILES	Kd (dissociation constant) [1]	RU in the SPR sensorgrams [1, 3]	pKd [2]	kon [2]	Ka (association constant) [1]	RU in the SPR sensorgrams ([1]; ligand at 1.56–50 μM)	pKd [1]	binding in the SPR assay (in words) [1]	RU in the SPR sensorgrams ([1]; ligand at 1.56–25 μM)
CCCCCc1cc(O)c(C/C=C(\C)CCC=C(C)C)c(O)c1C(=O)O [CBGA, cannabigerolic acid]	0.01516 s⁻¹	16.6–62.1 RU	4.41	390 M⁻¹ s⁻¹					
C=C(C)[C@@H]1CCC(C)=C[C@H]1c1c(O)cc(CCCCC)c(C(=O)O)c1O [CBDA, cannabidiolic acid]	1.104 s⁻¹	4.3–50.6 RU	4.04	12200 M⁻¹ s⁻¹					
Cc1cc(C(=O)N[C@@H](C)C(=O)N[C@H](C(=O)N[C@@H](CC(C)C)C(=O)N[C@H](/C=C/C(=O)OCc2ccccc2)C[C@@H]2CCNC2=O)C(C)C)no1 [M^pro N3]	0.02898 s⁻¹				6631 M⁻¹ s⁻¹	7.4–26.6 RU	5.36		
CCCCc1cc(O)c2c(c1)OC(C)(C)[C@@H]1CCC(C)=C[C@@H]21 [THCB, Δ^9-tetrahydrocannabibutol]								not able to be measured	
C=C(C)[C@@H]1CCC(C)=C[C@H]1c1c(O)cc(CCCCC)cc1O [CBD, cannabidiol, reference compound]	0.04173 s⁻¹	10.9–71.0 RU	4.11	533 M⁻¹ s⁻¹					
O=C[C@H](C[C@@H]1CCNC1=O)NC(=O)[C@H](Cc1cccc(F)c1)NC(=O)c1cc2ccccc2[nH]1 [M^pro 11b]	0.05533 s⁻¹				7975 M⁻¹ s⁻¹		5.16		12.4–54.3 RU
